Assay results reported in patent publication US20100010024A1, “USE OF1,4-DIARYL-DIHYDROPYRIMIDINE-2-ON DERIVATIVES FOR TREATING PULMONARY ARTERIAL HYPERTENSION” (Bayer Healthcare AG, priority 2006, published 2010).

Molecular target: T1, human neutrophil elastase (HNE) (Homo sapiens, UniProt P08246)
T1 construct: purchased Serva, Heidelberg
T1 sequence (P08246 30-267): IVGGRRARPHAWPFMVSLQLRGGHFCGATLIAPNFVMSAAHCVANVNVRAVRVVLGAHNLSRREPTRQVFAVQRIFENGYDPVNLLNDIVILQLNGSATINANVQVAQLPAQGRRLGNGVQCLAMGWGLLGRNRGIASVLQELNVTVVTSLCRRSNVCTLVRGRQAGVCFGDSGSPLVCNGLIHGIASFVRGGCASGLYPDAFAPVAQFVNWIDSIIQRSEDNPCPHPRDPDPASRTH
Assay: In vitro HNE inhibition assay
Type: biochemical
Protocol: B-1. In vitro HNE Inhibition Assay
The potency of the compounds of the invention is ascertained in an in vitro inhibition assay. The HNE-mediated amidolytic cleavage of a suitable peptide substrate leads in this connection to an increase in the fluorescent light. The signal intensity of the fluorescent light is directly proportional to the enzyme activity.
Enzyme (80 pM HNE; from Serva, Heidelberg) and substrate (20 μM MeOSuc-Ala-Ala-Pro-Val-AMC; from Bachem, Weil am Rhein) are incubated in an assay volume of in total 50 μl of assay buffer (0.1 M HEPES pH 7.4, 0.5 M NaCl, 0.1% w/v BSA, 1% v/v DMSO) in a 384-well microtiter plate in the presence and absence of the test substance at 37° C. for 2 hours. […] The IC50 values are determined by plotting the intensity of the fluorescent light against the active substance concentration.

## CC(=O)C1=C(C)N(c2cccc(C(F)(F)F)c2)C(=O)N[C@@H]1c1ccc(C#N)nc1 [Example 9, 5-{(4R)-5-Acetyl-6-methyl-2-oxo-1-[3-(trifluoromethyl)phenyl]-1,2,3,4-tetrahydropyrimidin-4-yl}-pyridine-2-carbonitrile]
  IC50: 20 nM
